This is an account of results in ChEMBL document CHEMBL3407421, “Design, synthesis, X-ray crystallographic analysis, and biological evaluation of thiazole derivatives as potent and selective inhibitors of human dihydroorotate dehydrogenase” (J Med Chem, 2015).

Each structure is given as a SMILES string.

The target in this assay is T1, Dihydroorotate dehydrogenase (Plasmodium falciparum, UniProt Q54A96).
T1 sequence (Q54A96 whole entry): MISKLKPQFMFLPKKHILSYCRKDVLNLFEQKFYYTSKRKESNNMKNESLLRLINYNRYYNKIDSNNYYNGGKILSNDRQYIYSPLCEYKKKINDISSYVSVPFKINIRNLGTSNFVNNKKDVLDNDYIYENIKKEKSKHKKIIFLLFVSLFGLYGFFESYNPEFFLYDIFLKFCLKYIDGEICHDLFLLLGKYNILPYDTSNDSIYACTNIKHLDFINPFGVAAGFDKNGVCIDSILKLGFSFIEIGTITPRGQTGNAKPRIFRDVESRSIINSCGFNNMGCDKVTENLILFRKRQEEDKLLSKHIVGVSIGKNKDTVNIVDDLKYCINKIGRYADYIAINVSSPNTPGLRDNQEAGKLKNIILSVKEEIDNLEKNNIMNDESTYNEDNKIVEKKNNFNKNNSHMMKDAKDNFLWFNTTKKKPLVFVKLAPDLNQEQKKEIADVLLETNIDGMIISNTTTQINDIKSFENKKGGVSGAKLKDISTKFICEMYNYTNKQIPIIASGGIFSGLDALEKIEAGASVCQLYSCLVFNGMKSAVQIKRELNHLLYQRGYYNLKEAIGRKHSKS
Description: Inhibition of Plasmodium falciparum DHODH using dihydroorotate substrate by DCIP assay.

On to `Cc1cc(Nc2ccc3ccccc3c2)n2ncnc2n1`, for which the midpoint of inhibition, the IC50, lay at 25 nM.
